Assay results published in ChEMBL document CHEMBL3400112, “Design, syntheses, and pharmacological characterization of 17-cyclopropylmethyl-3,14β-dihydroxy-4,5α-epoxy-6α-(isoquinoline-3'-carboxamido)morphinan analogues as opioid receptor ligands” (Bioorg Med Chem, 2015).

Test system: Mus musculus
Experiment: Antinociceptive activity in sc dosed mouse by warm water tail-flick test relative to control

Question: Which MPE does the source give for `CN(C(=O)Cc1ccc(Cl)c(Cl)c1)C1CCCCC1N1CCCC1` (stereo unspecified) here?
Answer: 25%
